This is a selection; strong and weak results do not stand in their true shares. Activity calls are given as the source filed them.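 How the source made its calls: active means inhibition at 20 µM, scaled per plate between control wells, above about 37% (limit read from the data); inactive means the rest.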
What follows are compounds tested against Tyrosine-protein phosphatase non-receptor type 5 (Homo sapiens) (UniProt P54829) (assay: STEP phosphatase inhibitors, primary screen, biochemical, fluorescence intensity, uHTS (AID 588621;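 further: 0% = DMSO with enzyme and substrate and 100% = substrate only without enzyme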)). Conditions: recombinant STEP, OMFP fluorogenic substrate, at 20 µM, hits give high values.
Summary of the method: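 material = STEP tyrosine phosphatase | reagent = fluorogenic phosphatase substrate OMFP at 25 µM final | doses = single compound dose of 20 µM, 1% DMSO final | schedule = 20 min reaction, room temperature, in the dark | measured by = fluorescence, 480/540 nm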

Sequences of proteins named here, by UniProt entry; tags and fusion partners are left off.
UniProt P54829, whole entry: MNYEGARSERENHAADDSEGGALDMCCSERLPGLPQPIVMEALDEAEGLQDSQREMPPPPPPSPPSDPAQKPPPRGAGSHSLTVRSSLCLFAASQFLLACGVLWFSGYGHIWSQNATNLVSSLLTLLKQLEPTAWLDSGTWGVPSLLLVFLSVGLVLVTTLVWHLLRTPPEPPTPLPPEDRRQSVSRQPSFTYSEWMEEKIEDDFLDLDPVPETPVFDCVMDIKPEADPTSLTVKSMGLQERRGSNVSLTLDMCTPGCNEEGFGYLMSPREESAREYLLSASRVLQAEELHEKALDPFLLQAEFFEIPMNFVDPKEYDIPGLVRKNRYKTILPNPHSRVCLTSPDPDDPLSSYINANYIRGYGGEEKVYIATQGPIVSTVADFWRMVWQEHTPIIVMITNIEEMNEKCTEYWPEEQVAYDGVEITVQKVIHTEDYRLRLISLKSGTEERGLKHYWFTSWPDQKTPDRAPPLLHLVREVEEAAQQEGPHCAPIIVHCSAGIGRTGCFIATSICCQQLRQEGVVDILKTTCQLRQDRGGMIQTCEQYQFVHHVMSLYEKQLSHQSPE

Structure (SMILES)	inhibition
Cc1ccccc1NC1(C#N)CCN(Cc2ccccc2)CC1	inactive: -1.2%
COc1ccc(C(c2nnnn2C2CCCCC2)N2CCC(n3c(=O)[nH]c4ccccc43)CC2)cc1 (configuration not stated)	inactive: 0.9%
CCN1CCC(Nc2cccc(F)c2)CC1	inactive: -1%
CC(C)(C)n1nnnc1C(c1ccnc2ccccc12)N1CCC(n2c(=O)[nH]c3ccccc32)CC1 (configuration not stated)	inactive: 0.8%
O=C(NCC1(N2CCCCC2)CCCCC1)c1ccco1	inactive: 1.6%
CN(C)c1ccc(C(=O)NCC2(N3CCCCC3)CCCCC2)cc1	inactive: -2.6%
Cn1c(=O)[nH]cc(N(CCCl)CCCl)c1=O	inactive: 3.7%
COc1cccc(C(c2nnnn2C2CCCCC2)N2CCC(n3c(=O)[nH]c4ccccc43)CC2)c1OC (configuration not stated)	inactive: 2.9%
CC(=O)N(c1ccccc1)C1CCNCC1	inactive: -4.6%
CCC(c1nnnn1C1CCCCC1)N1CCC(n2c(=O)[nH]c3ccccc32)CC1 (configuration not stated)	inactive: -1.7%
COc1cc(OC)cc(C(=O)NCC2(N3CCCCC3)CCCCC2)c1	inactive: -1%
O=c1[nH]c2ccccc2n1C1CCN(C(c2ccnc3ccccc23)c2nnnn2C2CCCCC2)CC1 (configuration not stated)	inactive: 6.9%
Cc1ccc(C(=O)NCC2(N3CCCCC3)CCCCC2)o1	inactive: -0.3%
Fc1ccccc1NC1CCN(Cc2ccccc2)CC1	inactive: -3.5%
Cc1ccc(NC2(C#N)CCN(Cc3ccccc3)CC2)cc1	inactive: 2%
COc1cccc(C(=O)N(c2cc(C)cc(C)c2)C2CCN(C(=O)OC(C)(C)C)CC2)c1	inactive: 2%
COc1cccc(C(c2nnnn2C2CCCC2)N2CCC(n3c(=O)[nH]c4ccccc43)CC2)c1OC (configuration not stated)	inactive: 1.7%
COc1cc(OC)cc(C(=O)NCC2(N3CCOCC3)CCCCC2)c1	inactive: 0.5%
CCC(CO)(C(=O)OC1CN2CCC1CC2)c1ccccc1 (configuration not stated)	inactive: -2.6%
CN1CCC(Nc2ccc(Cl)cc2)CC1	inactive: -4.3%
CCOc1ncccc1C(=O)NCC1(N2CCOCC2)CCCCC1	inactive: 0.1%
CN1CCC(Nc2ccc(F)c(Cl)c2)CC1	inactive: -4.1%

Structure (SMILES)	inhibition
CC(C)(C)OC(=O)N1CCC(Nc2ccccc2)CC1	inactive: -1%
O=C(O)C1(Nc2ccccc2)CCN(Cc2ccccc2)CC1	inactive: -0.6%
O=c1[nH]c2ccccc2n1C1CCN(C(c2cc3ccccc3o2)c2nnnn2C2CCCC2)CC1 (configuration not stated)	inactive: 0.2%
CCCOc1ccc(C(=O)NCC2(N(C)C)CCCCC2)cc1	inactive: -1.3%
CCOC(=O)N1CCC(Nc2ccc(C)cc2)CC1	inactive: -2.4%
COc1cccc(C(c2nnnn2C(C)(C)C)N2CCC(n3c(=O)[nH]c4ccccc43)CC2)c1OC (configuration not stated)	inactive: 2.3%
N/C(=N\O)c1c(N)no[n+]1[O-]	inactive: -2.7%
O=C(OC1CN2CCC1CC2)C1c2ccccc2C=Cc2ccccc21 (configuration not stated)	inactive: -5.1%
O=c1[nH]c2ccccc2n1C1CCN(C(c2cccs2)c2nnnn2C2CCCC2)CC1 (configuration not stated)	inactive: 4.6%
CCCCn1nnnc1C(c1cccc(OC)c1OC)N1CCC(n2c(=O)[nH]c3ccccc32)CC1 (configuration not stated)	inactive: 3.6%
CCCCn1nnnc1C(c1ccccc1)N1CCC(n2c(=O)[nH]c3ccccc32)CC1 (configuration not stated)	inactive: 2.4%
COc1cc(C(=O)NCC2(N3CCOCC3)CCCCC2)cc(OC)c1C	inactive: -2.3%
O=C(NCC1(N2CCOCC2)CCCCC1)c1cc(Br)ccc1Cl	inactive: 1.2%
O=c1[nH]c2ccccc2n1C1CCN(C(c2cccs2)c2nnnn2C2CCCCC2)CC1 (configuration not stated)	inactive: -2.8%
COc1ccc(C(=O)NCC2(N3CCOCC3)CCCCC2)cc1OC	inactive: -0.3%
O=c1[nH]c2ccccc2n1C1CCN(C(c2ccnc3ccccc23)c2nnnn2C2CCCC2)CC1 (configuration not stated)	inactive: 1.8%
CN(C)C1(CNC(=O)c2cccc(C#N)c2)CCCCC1	inactive: -1.6%
c1ccc(CN2CCC(Nc3ccccc3)CC2)cc1	inactive: 1.5%
O=c1[nH]c2ccccc2n1C1CCN(C(c2ccccc2)c2nnnn2C2CCCC2)CC1 (configuration not stated)	inactive: -1.4%
CCCN1CCC(Nc2cc(OC)cc(OC)c2)CC1	inactive: -3.8%
Cc1cc(N(CCCl)CCCl)ccc1C=O	inactive: 0.2%
CC(C)(C)n1nnnc1C(c1cccc2ccccc12)N1CCC(n2c(=O)[nH]c3ccccc32)CC1 (configuration not stated)	inactive: 1.5%

Structure (SMILES)	inhibition
N#Cc1ccc(C(=O)NCC2(N3CCCCC3)CCCCC2)cc1	inactive: -1.1%
CC(C)(C)OC(=O)N1CCC(N(C(=O)c2ccccc2)c2ccc(Cl)cc2)CC1	inactive: -0.9%
O=C(NCC1(N2CCCCC2)CCCCC1)c1cccc(C(F)(F)F)c1	inactive: -3.1%
O=C(NCC1(N2CCOCC2)CCCCC1)c1cc(=O)[nH]c2ccccc12	inactive: -0.4%
COc1cc(C(=O)NCC2(N3CCCCC3)CCCCC2)ccc1OC(F)F	inactive: 1.2%
COc1ccc(NC2CCN(C(=O)OC(C)(C)C)CC2)cc1	inactive: 4.5%
CC(C)c1ccc(C(=O)NCC2(N3CCOCC3)CCCCC2)cc1	inactive: -0.5%
CN1CCN(CCOC(=O)C(O)(c2ccccc2)c2ccccc2)CC1	inactive: -3.8%
CCCCn1nnnc1C(c1cccc2ccccc12)N1CCC(n2c(=O)[nH]c3ccccc32)CC1 (configuration not stated)	inactive: 3%
CC(C)(C)n1nnnc1C(c1ccccc1OC(F)(F)F)N1CCC(n2c(=O)[nH]c3ccccc32)CC1 (configuration not stated)	inactive: 3.5%
O=C(NCC1(N2CCCCC2)CCCCC1)c1ccc(OC(F)F)cc1	inactive: -1.5%
CCN1CCC(Nc2ccc(Cl)cc2)CC1	inactive: -7.4%
O=c1[nH]c2ccccc2n1C1CCN(C(c2ccccc2OC(F)(F)F)c2nnnn2C2CCCC2)CC1 (configuration not stated)	inactive: 0.9%
N#CC1(Nc2ccccc2)CCN(CCc2ccccc2)CC1	inactive: -2.9%
CSc1ccc(C(=O)NCC2(N3CCOCC3)CCCCC2)cc1	inactive: -1.5%
O=C(NCC1(N2CCCCC2)CCCCC1)c1cccc([N+](=O)[O-])c1	inactive: 0.6%
CN1CCC(Nc2cccc(F)c2)CC1	inactive: -1.3%
O=C(NCC1(N2CCCCC2)CCCCC1)c1cncc(Br)c1	inactive: -0.3%
COc1ccc(C(c2nnnn2C2CCCC2)N2CCC(n3c(=O)[nH]c4ccccc43)CC2)cc1 (configuration not stated)	inactive: 0.2%
Cc1ccc(C(=O)NCC2(N(C)C)CCCCC2)o1	inactive: -0.6%
CCCOc1ccc(C(=O)NCC2(N(C)C)CCCCC2)cc1OC	inactive: -2%
CC(C)c1ccc(NC2CCN(C(=O)OC(C)(C)C)CC2)cc1	inactive: 0.2%

Structure (SMILES)	inhibition
CCCCn1nnnc1C(c1ccccc1OC(F)(F)F)N1CCC(n2c(=O)[nH]c3ccccc32)CC1 (configuration not stated)	inactive: -0.1%
COc1ccc(CN(CCCl)CCCl)cc1Cl	inactive: -3.5%
CN(C)c1cccc(C(=O)NCC2(N3CCCCC3)CCCCC2)c1	inactive: -2.6%
COc1cc(OC)c(C(=O)NCC2(N(C)C)CCCCC2)cc1OC	inactive: -1.1%
CCC(c1nnnn1C(C)(C)C)N1CCC(n2c(=O)[nH]c3ccccc32)CC1 (configuration not stated)	inactive: 0.5%
O=C(NCC1(N2CCOCC2)CCCCC1)c1cc(F)c(F)cc1Cl	inactive: 1.4%
CCCCn1nnnc1C(c1ccnc2ccccc12)N1CCC(n2c(=O)[nH]c3ccccc32)CC1 (configuration not stated)	inactive: 1.7%
O=C(NCC1(N2CCCCC2)CCCCC1)c1ccc(Cl)nc1	inactive: 1.2%
O=c1[nH]c2ccccc2n1C1CCN(C(c2ccccc2OC(F)(F)F)c2nnnn2C2CCCCC2)CC1 (configuration not stated)	inactive: 0.6%
Cc1cc(C)cc(N(C(=O)c2ccccc2)C2CCN(C(=O)OC(C)(C)C)CC2)c1	inactive: 0.6%
O=C(NCC1(N2CCOCC2)CCCCC1)c1cc2ccccc2o1	inactive: -5.9%
N#CC1(Nc2ccccc2)CCN(Cc2ccccc2)CC1	inactive: 7.2%
O=C(NCC1(N2CCCCC2)CCCCC1)c1ccc(Cl)s1	inactive: 1%
O=c1[nH]c2ccccc2n1C1CCN(C(c2cc3ccccc3o2)c2nnnn2C2CCCCC2)CC1 (configuration not stated)	inactive: 3%
O=C(OC1CN2CCC1CC2)C1c2ccccc2Oc2ccccc21 (configuration not stated)	inactive: 1.9%
COc1ccc(Cl)cc1C(=O)NCC1(N2CCOCC2)CCCCC1	inactive: -2.9%
CCOC(=O)N1CCC(Nc2ccc(OC)cc2)CC1	inactive: 0.1%
CCCCn1nnnc1C(c1ccc(OC)cc1)N1CCC(n2c(=O)[nH]c3ccccc32)CC1 (configuration not stated)	inactive: 3.6%
COc1ccc(C(=O)NCC2(N3CCCCC3)CCCCC2)cc1	inactive: 5.6%
COc1ccc(C(=O)NCC2(N3CCCCC3)CCCCC2)c(OC)c1OC	inactive: -0.1%
CC(C)(C)OC(=O)N1CCC(N(C(=O)c2ccccc2)c2ccc(F)cc2)CC1	inactive: 1.1%
CCC(c1nnnn1C1CCCC1)N1CCC(n2c(=O)[nH]c3ccccc32)CC1 (configuration not stated)	inactive: -0.3%

Structure (SMILES)	inhibition
O=C(NCC1(N2CCCCC2)CCCCC1)c1ccc(=O)[nH]c1	inactive: -2.1%
CCCCn1nnnc1C(CC)N1CCC(n2c(=O)[nH]c3ccccc32)CC1 (configuration not stated)	inactive: 3%
O=C(NCC1(N2CCCCC2)CCCCC1)c1cccs1	inactive: -2.3%
CCCCn1nnnc1C(c1cccs1)N1CCC(n2c(=O)[nH]c3ccccc32)CC1 (configuration not stated)	inactive: -0.7%
CSc1ccccc1C(=O)NCC1(N2CCCCC2)CCCCC1	inactive: 1.7%
Cc1cccc(NC2(C#N)CCN(Cc3ccccc3)CC2)c1	inactive: 4.1%
O=c1[nH]c2ccccc2n1C1CCN(C(c2ccccc2)c2nnnn2C2CCCCC2)CC1 (configuration not stated)	inactive: 1.2%
CCOC(=O)N1CCC(Nc2cccc(C)c2)CC1	inactive: -1.8%
COc1cc(C(=O)NCC2(N(C)C)CCCCC2)ccc1OC(F)F	inactive: 0.9%
O=c1[nH]c2ccccc2n1C1CCN(C(c2cccc3ccccc23)c2nnnn2C2CCCC2)CC1 (configuration not stated)	inactive: 1.5%
CC(C)(C)n1nnnc1C(c1ccccc1)N1CCC(n2c(=O)[nH]c3ccccc32)CC1 (configuration not stated)	inactive: 1.1%
O=C1CCN(Cc2ccccc2)CC1	inactive: -5%
CCOc1ccc(C)cc1CN(CCCl)CCCl	inactive: 0.1%
CCCCOc1ccc(C(=O)NCC2(N3CCOCC3)CCCCC2)cc1	inactive: 7.4%
O=P1(N(CCCl)CCCl)SCCCS1	inactive: -1.1%
CCCCn1nnnc1C(c1cc2ccccc2o1)N1CCC(n2c(=O)[nH]c3ccccc32)CC1 (configuration not stated)	inactive: -1.2%
O=C(NCC1(N2CCCCC2)CCCCC1)c1ccc(F)cc1	inactive: 1.7%
CCOC(=O)N1CCC(Nc2ccc(F)cc2)CC1	inactive: -2.4%
COc1ccc(NC2CCN(CCc3ccccc3)CC2)c(OC)c1	inactive: -0.7%

Reference: PubChem BioAssay AID588621 (Sanford-Burnham Center for Chemical Genomics, 2011)
